T1: MPL (Homo sapiens, UniProt P40238)
T1 construct: endogenous in cells; host or cells: Jurkat, K562, RAJI, RS411 and HEL.92.1.7 cells (Gluc-expressing), carrying empty vector or human c-MPL cDNA
T1 sequence (P40238 26-635): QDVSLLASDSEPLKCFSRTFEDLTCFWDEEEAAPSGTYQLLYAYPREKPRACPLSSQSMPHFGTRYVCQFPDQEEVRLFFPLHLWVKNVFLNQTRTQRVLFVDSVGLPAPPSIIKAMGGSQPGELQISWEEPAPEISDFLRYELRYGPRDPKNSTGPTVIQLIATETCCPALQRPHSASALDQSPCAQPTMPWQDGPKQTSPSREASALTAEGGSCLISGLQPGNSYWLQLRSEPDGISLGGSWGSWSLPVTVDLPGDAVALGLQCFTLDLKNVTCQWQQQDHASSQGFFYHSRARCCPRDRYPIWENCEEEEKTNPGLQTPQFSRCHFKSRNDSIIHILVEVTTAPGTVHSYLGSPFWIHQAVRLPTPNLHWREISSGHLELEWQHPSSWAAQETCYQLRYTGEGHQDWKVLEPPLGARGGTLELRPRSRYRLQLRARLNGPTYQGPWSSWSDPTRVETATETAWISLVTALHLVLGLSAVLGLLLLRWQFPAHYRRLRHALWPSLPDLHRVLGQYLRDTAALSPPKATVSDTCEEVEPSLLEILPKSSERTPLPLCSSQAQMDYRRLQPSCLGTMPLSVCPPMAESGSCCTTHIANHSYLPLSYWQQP

B1: 161-GGSG-NLuc-AcV5: scFv of 1.6.1 monoclonal antibody against MPL fused to AcV5-tagged NLuc (protein)
chain: MALPVTALLLPLALLLHAARPDDIQMTQSSSSFSVSLGDRVTITCMASEDIYIRLAWYQQKPGNAPRLLISAATSLETGVPSRFSGSGSGKDYTLSITSLQTEDVGTYYCQQYWSSPWTFGGGTKLEINGGGGSGGGGSGGGGSDVQLQESGPGLVKPSQSLSLTCTVTGYSITSDYTWNWIRQFPGNKLEWMGYITYSGSTSYNPSLKSRNSITRDTSKNQFFLQLNSVTTEDTATYYCARLGRRYTMDYWGQGTSVTVSSTRGGSGVFTLEDFVGDWRQTAGYNLDQVLEQGGVSSLFQNLGVSVTPIQRIVLSGENGLKIDIHVIIPYEGLSGDQMGQIEKIFKVVYPVDDHHFKVILHYGTLVIDGVTPNMIDYFGRPYEGIAVFDGKKITVTGTLWNGNKIIDERLINPDGSLLFRVTINGVTGWRLCERILASWKDASGWS
modifications: listed as DNA
notes: scFv of 1.6.1 monoclonal antibody against MPL fused to AcV5-tagged NLuc
B2: IL-7: exogenous recombinant human IL-7 (protein, UniProt P13232 26-177, looked up)
Interleukin-7: DCDIEGKDGKQYESVLMVSIDQLLDSMKEIGSNCLNNEFNFFKRHICDANKEGMFLFRAARKLRQFLKMNSTGDFDLHLLKVSEGTTILLNCTGQVKGRKPAALGEAQPTKSLEENKSLKEQKKLNDLCFLKRLLQEIKTCWNKILMGTKEH

Tests used:
[1] = molecular target: T1, MPL; experiment: Assay to detect expression of antigens on target cells: binding of 161-GGSG-NLuc-AcV5 supernatant (NLuc activity)
Excerpt: Both CD19 and MPL (also known as Thrombopoietin receptor or TPO-R) are expressed on hematopoietic cells but show differential expression in cells of different lineages. FMC63 is a well characterized mouse monoclonal antibody that specifically recognizes human CD19. Similarly, 161 (also designated as 1.6.1) is a monoclonal antibody that recognizes human MPL and is described in U.S. patent application US 2012/0269814 A1. We generated a FMC63 single chain Fv (scFv) fragment based on the known sequence of FMC63 vL and vH fragments. The cDNA encoding FMC63 scFv fragment consisted from 5′ to 3′ ends a nucleotide sequences encoding a signal peptide derived from human CD8 molecule, FMC63 vL fragment, a (Gly4Ser)x3 linker and FMC63-vH fragment. The cDNA encoding the FMC63 scFv fragment was then fused in-frame at its 3′ end to cDNA encoding AcV5-tagged NLuc through a Gly-Gly-Ser-Gly (SEQ ID NO:3571) linker to generate FMC63-GGSG-NLuc. The resulting fragment was then cloned down-stream of the human EF1α promoter into the lentiviral vector pLenti-EF1α (SEQ ID NO: 905) to make the construct Plenti-EF1a-FMC63(vL-vH)-GGSG-NLuc-AcV5-U09. The DNA and PRT sequences of the insert fragment are provided in SEQ ID NO: 923 and SEQ ID NO: 2668, respectively. A construct encoding 161-GGSG-NLuc was similarly generated using the vL and vH fragment of 1.6.1 monoclonal antibody against MPL. The DNA and PRT sequences of the insert fragment are provided in SEQ ID NO: 924 and SEQ ID NO: 2669, respectively. The pLenti-EF1a-FMC63(vL-vH)-GGSG-NLuc-AcV5 and pLenti-EF1a-161(vL-vH)-GGSG-NLuc-AcV5 plasmids were transfected into 293FT cells by calcium phosphate co-precipitation method. Approximately 20h post-transfection, the cell culture media was replaced with XVIVO medium. The conditioned media containing the secreted FMC63(vL-vH)-GGSG-NLuc-AcV5 (also referred to as FMC63-GGSG-NLuc-AcV5) and 161(vL-vH)-GGSG-NLuc-AcV5 (also referred to as 161-GGSG-NLuc-AcV5) proteins was collected 48-72h later.
The supernatant containing FMC63-GGSG-NLuc-AcV5 and 161-GGSG-NLuc-AcV5 proteins were used to detect the expression of CD19 and MPL on the surface of Jurkat, K562, RAJI, RS-4-11 (RS411) and HEL.92.1.7 (HEL) cells that had been engineered to express a c-MPL cDNA by transducing these cells with a lentiviral vector expressing human c-MPL cDNA or an empty vector. The cells also expressed a humanized Gluc cDNA lacking its signal peptide. The vector- and MPL-expressing Jurkat-Gluc, K562-Gluc, HEL.92.1.7-Gluc, RAJI-Gluc and RS411-Gluc cells were incubated with the FMC63-GGSG-NLuc-AcV5 and 161-GGSG-NLuc-AcV5 supernatants at 4° C. for 1h followed by extensive washings with cold PBS supplemented with 0.1% BSA. […] NLuc assay buffer containing native coelenterazine (CTZ) as NLuc substrate (30 μl/well of native coelenterazine diluted in PBS) was added to each well by an automatic dispenser in a well mode using a BioTek synergy H4 plate reader and light emission as a measure of NLuc activity was measured.

[2] = tested on: RAJI xenograft model of lymphoma; experiment: In vivo efficacy of CAR-T cells, RAJI xenograft model of lymphoma in NSG mice (Table 27); design: species or system mouse; details: IL-7 200 ng/mouse i.p. three times from 1 day after CAR-T cells, versus saline
Experimental: NSG mice (Jackson Lab) were sub-lethally irradiated at a dose of 175 cGy. 24 hours post irradiation (day2), mice were injected with 2.5×10^4 RAJI cells via tail-vein. […] Control mice (n=5) were injected with 1 million T cells expressing the CD8SP-KSHV-4C3-(vL-vH)-Myc-BBz-T2A-PAC(042315-N01)[SEQ ID NO:1643] CAR or given no T cells. […] The median survival of mice given RAJI cells alone and CD8SP-KSHV-4C3-(vL-vH)-Myc-BBz-T2A-PAC(042315-N01)[SEQ ID NO:1643]CAR-T cells were 17 days and 21 days respectively. In contrast, the median survival of mice which received CD8SP-2-CD19MM-(vL-vH)-Myc-BBz-T2A-PAC(062915-D03)[SEQ ID NO:1471] CAR-T cells with and without puromycin selection were 26 and 30 days, respectively. […] CAR-T cells with and without puromycin selection were 30 and 31 days, respectively.
NSG mice (Jackson Lab) were sub-lethally irradiated at a dose of 175 cGy. 24 hours post irradiation (day2), mice were injected with 2.5×10^4 RAJI cells via tail-vein. On day3, the mice (n=3 for each group) were treated with 1 million T cells that had been infected with the CAR encoding lentiviruses.
Human peripheral blood T cells will be isolated using CD3 magnetic beads and infected with lentiviruses expressing the CAR constructs (SEQ ID NO: 11 1614-1B05) targeting CD 19. […] NSG mice (Jackson Lab) will be sub-lethally irradiated at a dose of 175 cGy. 24 hours post irradiation (day2), mice will be injected with 2.5×10^4 RAJI cells via tail-vein. On day 3, the mice (n=5 for each group) will be treated with 5 million T cells that had been infected with the indicated CAR encoding lentiviruses and expanded in the absence or presence of PF-04691502. Control mice (n=5) will be injected with 5 million uninfected T cells. Mice are given human IL2 (400 IU i.p.) on alternate days till the death of all mice in control group.

Molecule	binding (NLuc activity) ([1]; HEL.92.1.7-Gluc-MPL cells, versus vector cells)	binding (NLuc activity) ([1]; HEL.92.1.7-Gluc-vector cells)	binding (NLuc activity) ([1]; Jurkat, RAJI and RS411 cells upon ectopic expression of MPL)	binding (NLuc activity) ([1]; K562-MPL cells, versus K562-vector)	binding (NLuc activity) ([1]; K562-vector cells)	binding (NLuc activity) ([1]; vector-expressing Jurkat, RAJI and RS411 cells)	tumor rejection and survival [2]
B1	modest increase	strong binding	modestly increased	significantly increased	weak but stronger binding	very weak binding	–
B2	–	–	–	–	–	–	expected to reject their tumor and survive longer

Reference: US20240166755A1, “CHIMERIC ANTIGEN RECEPTORS TARGETING CANCER” (University of Southern California, priority 2016, published 2024)
